Reference: patent US20140336182A1, “Aurora Kinase Modulators and Method of Use” (Amgen Inc., priority 2013, published 2014)

The chains behind the UniProt entries cited, without tags or fusion partners.
UniProt Q96GD4, whole entry: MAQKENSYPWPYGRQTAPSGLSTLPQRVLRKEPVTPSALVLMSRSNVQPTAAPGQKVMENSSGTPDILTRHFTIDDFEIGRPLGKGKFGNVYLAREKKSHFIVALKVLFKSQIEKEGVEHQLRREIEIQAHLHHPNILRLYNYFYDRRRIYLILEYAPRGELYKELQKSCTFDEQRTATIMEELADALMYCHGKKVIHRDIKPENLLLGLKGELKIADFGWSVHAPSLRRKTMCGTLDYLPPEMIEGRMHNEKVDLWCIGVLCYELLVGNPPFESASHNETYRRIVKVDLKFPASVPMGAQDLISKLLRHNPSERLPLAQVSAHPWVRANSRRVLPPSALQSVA

Assays:
[1] = tested on: HeLa cells; test: HeLa cell 24 hr ploidy assay (DNA content); settings: read-out: 24h_4NPloidy EC50_IP (uM Avg), 4N ploidy, average
[2] = target: AuroraB (Homo sapiens, UniProt Q96GD4); test: AuroraB Homogeneous Time Resolved Fluorescent (HTRF) kinase assay; settings: read-out: AurB_IC50_IP (uM Avg); average

Row | EC50 [1] [µM] | IC50 [2] [µM] | SMILES
1 | 0.025 | 0.032 | COc1cnc2c(Sc3ccc(Nc4nnc(N5CCOCC5)c5ccccc45)cc3)ccnc2c1
2 | 0.011 | 0.026 | COc1cnc2c(Sc3ccc(Nc4nnc(-c5ccc(Cl)cc5)c5ccccc45)cn3)ccnc2c1
